Results on one compound are retold here after publication PMC10834355 (Cell metabolism, 2023).

For this test, the target named is T1, human neutrophil elastase (NE) (Homo sapiens, UniProt P08246).
T1 sequence (P08246 30-267): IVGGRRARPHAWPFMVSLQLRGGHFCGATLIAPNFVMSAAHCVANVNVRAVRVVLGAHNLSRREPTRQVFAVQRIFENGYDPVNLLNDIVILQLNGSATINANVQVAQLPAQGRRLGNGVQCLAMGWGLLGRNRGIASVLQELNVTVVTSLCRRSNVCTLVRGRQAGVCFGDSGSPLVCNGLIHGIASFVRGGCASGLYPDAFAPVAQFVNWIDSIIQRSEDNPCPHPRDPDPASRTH
The test can be described thus: Absorbance-based protease activity assay, human NE. The test is classed as biochemical.

In turn, `CC(C)(C)C(=O)Oc1ccc(S(=O)(=O)Nc2ccccc2C(=O)NCC(=O)O)cc1` [sivelestat] showed an IC50 of 0.189 µM.
